# US10765741B2, “Methods for treating VEGF-expressing cancer using preformed nanoparticle complexes comprising albumin-bound paclitaxel and bevacizumab” (Mayo Foundation for Medical Education and Research, priority 2011, dated 2020)
# Assay: Complex formation of labeled antibodies with labeled Abraxane nanoparticles, flow cytometry
# Assay type: binding
# Details: fluorescently labeled antibody and nanoparticles
# Procedure: Three therapeutic monoclonal antibodies (bevacizumab, trastuzamab, and rituxan) were fluorescently labeled and incubated with fluorescently labeled Abraxane® nanoparticles. The particles were spun down, washed, and visualized by flow cytometry.
substance,measurement,value
trastuzamab: Therapeutic monoclonal antibody (non-VEGF targeting),complex formation with Abraxane nanoparticles,spontaneously formed complexes
